The subject of this data set is normal human fibroblasts.

As for “dextran texas red [#D-3329 dextran texas red]”, the Toxicity entry was “Yes”.

For the origin of these results see patent publication US9655822B2, “Hydrated lamellar phases or liposomes which contain a fatty monoamine or a cationic polymer which promotes intracellular penetration, and a cosmetic or pharmaceutical composition containing same, as well as a method of screening such a substance” (BASF Beauty Care Solutions France S.A.S., priority 2004, dated 2017).
